From patent US7820706B2, “Multiple dose aromatase inhibitor for treating infertility” (Ares Trading S.A., priority 2001, dated 2010)

How the values were obtained:
[1] = test system: patients with unexplained infertility, poor responders to FSH; test: Example 2: letrozole with FSH in poor responders undergoing IUI; format: in vivo, human; settings: mean + SD
From the text: Eight patients with unexplained infertility undergoing intrauterine insemination (IUI) received hFSH (human FSH) from cycle day 3 and were considered poor responders (<3 dominant follicles) during 16 FSH-only cycles. […] HCG (10,000 IU) was given when leading follicles were >2 cm followed by IUI. The mean+SD age and duration of infertility were 36.5+2.96 and 4.6+1.2 years, respectively.

[2] = test system: PCOS patients and unexplained infertility patients; test: Example 4: controlled study letrozole + FSH versus FSH only with IUI; format: in vivo, human
From the text: The study groups included 15 PCOS patients and 12 unexplained infertility patients. The control groups consisted of 25 PCOS patients and 55 unexplained infertility patients. All patients received recombinant or highly purified FSH (50-150 IU/day starting on day 3 to 7 until day of hCG (10,000 IU) that was given when 2 leading follicles were >2 cm). The FSH regimen was based on the patient's clinical profile. Patients were not randomized. All patients had intrauterine insemination. There was no statistically significant difference between the study and control groups as regards age, weight, infertility duration, number of prior insemination cycles, semen parameters or type of FSH.

FSH only: follicle stimulating hormone (recombinant or highly purified) given alone
Day of HCG administration [1]: 12.2 + 2.9
E2/mature follicle on HCG day [1]: 1097 + 557 pmol/L
E2 on HCG day [1]: 1893 + 1066 pmol/L
Endometrial thickness (on HCG day) [1]: 0.92 + 0.15 cm
FSH/cycle [1]: 1469 + 498 IU
LH on HCG day [1]: 14.7 + 13.2 IU/L
Number of mature follicles [1]: 1.88 + 0.7
Stimulation days/cycle [1]: 9.1 + 3
Day of hCG admin. ([2]; PCOS): 12
Endometrial thickness (on HCG day) ([2]; PCOS): 11.7
Estradiol on hCG day ([2]; PCOS): 3480 pmol/L
Estradiol/mature follicle ([2]; PCOS): 967 pmol/L
Follicle (>1.8 cm) on hCG day ([2]; PCOS): 3.6
LH on hCG day ([2]; PCOS): 17.8 IU/L
Pregnancy rate ([2]; PCOS): 20%
Total FSH dose/cycle ([2]; PCOS): 955 IU
Day of hCG admin. ([2]; unexplained infertility): 12
Endometrial thickness (on HCG day) ([2]; unexplained infertility): 12.1
Estradiol on hCG day ([2]; unexplained infertility): 3140 pmol/L
Estradiol/mature follicle ([2]; unexplained infertility): 969 pmol/L
Follicle (>1.8 cm) on hCG day ([2]; unexplained infertility): 3.2
LH on hCG day ([2]; unexplained infertility): 18.3 IU/L
Pregnancy rate ([2]; unexplained infertility): 18%
Total FSH dose/cycle ([2]; unexplained infertility): 1320 IU
